Reference: US9139577B2, “Sulfoximine substituted quinazolines for pharmaceutical compositions” (Boehringer Ingelheim International GmbH, priority 2013, dated 2015)

The chains behind the UniProt entries cited, without tags or fusion partners. A line that says so, or that is headed by a name, gives the form on record, which may keep a tag or linker.
UniProt Q9BUB5, other isoform, or with tags, fused parts or gaps: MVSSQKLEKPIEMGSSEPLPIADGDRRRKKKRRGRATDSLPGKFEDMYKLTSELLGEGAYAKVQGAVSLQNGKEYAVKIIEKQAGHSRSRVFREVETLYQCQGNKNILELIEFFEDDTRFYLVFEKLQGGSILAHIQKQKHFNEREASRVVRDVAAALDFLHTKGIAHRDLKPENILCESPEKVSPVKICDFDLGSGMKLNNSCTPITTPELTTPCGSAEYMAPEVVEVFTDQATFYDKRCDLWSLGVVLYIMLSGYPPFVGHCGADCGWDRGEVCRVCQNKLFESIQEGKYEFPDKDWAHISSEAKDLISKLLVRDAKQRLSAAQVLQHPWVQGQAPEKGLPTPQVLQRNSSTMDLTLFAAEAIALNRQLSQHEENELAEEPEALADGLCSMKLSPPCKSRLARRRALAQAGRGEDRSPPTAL

Biological target: MNK1 (Homo sapiens (Human), UniProt Q9BUB5)
Test: MNK1 in vitro kinase assay (Assay 3), Z'-LYTE
Assay type: biochemical
Details: read-out: MNK1 % INH
Description: C. MNK1 In vitro Kinase Assay (Assay 3)
MNK1 Data can be obtained from the MNK1 Z′-LYTE® assay. The MNK1 Z′-LYTE® screening protocol and assay conditions are also described on www.invitrogen.com.
The assay is described as follows:
The Z′-LYTE® biochemical assay employs a fluorescence-based, coupled-enzyme format and is based on the differential sensitivity of phosphorylated and non-phosphorylated peptides to proteolytic cleavage. The peptide substrate is labeled with two fluorophores—one at each end—that make up a FRET pair.
In the primary reaction, the kinase transfers the gamma-phosphate of ATP to a single tyrosine, serine or threonine residue in a synthetic FRET-peptide. In the secondary reaction, a site-specific protease recognizes and cleaves non-phosphorylated FRET-peptides. Phosphorylation of FRET-peptides suppresses cleavage by the Development Reagent. […] A ratiometric method, which calculates the ratio (the Emission Ratio) of donor emission to acceptor emission after excitation of the donor fluorophore at 400 nm, is used to quantitate reaction progress, as shown in the equation below.
ASSAY SETUP: The inhibition of kinase activity of MNK1a was assessed using pre-activated GST-MNK1a. […]
9. Read on fluorescence plate reader and analyze the data […]
Correction for Background Fluorescence: FlSample-FlTCFl Ctl […]
Fl=Fluorescence Intensity […]

Cc1cc(N=S(C)(C)=O)cc2ncnc(Nc3ccc(F)cc3O[C@H](C)C(=O)N3CCOCC3)c12 [Example 4.032]
inhibition at 1 µM: 94%
